# High-throughput results deposited in PubChem by ICCB-Longwood Screening Facility, Harvard Medical School.
# HCMV UL50-53 inh = inhibitors of HCMV UL50-UL53 interaction, biochemical, HTRF; HCMV UL50-UL53 nuclear egress complex (human cytomegalovirus); normalized percent inhibition; inhibition, % (no concentration beside the values); 190,000 compounds, 0.15% hits; in the data active means inhibition above about 27%, passing the limit was not always enough
# GIV Gai3 FP = inhibitors of GIV GBA-motif binding to rat Galpha-i3. 210,000 tested, 0.42% active. percent of control (FP), % (concentration not given with the values). AID 1224905. Galpha-i3/FITC-GIV peptide fluorescence polarization, 90 min; active compounds read low; scaled: aluminum fluoride 0%, vehicle 100%;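 active = replicate mean at 85% of control or lower, very high polarization wells dropped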;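 note: wells of about 15 µL received 100 nL stock; the first replicate is given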
# GIV Gai FP conf = inhibitors of GIV peptide binding to Galpha-i3, confirmation, biochemical, fluorescence polarization, FITC-GIV peptide, rat Galphai3; shares compounds with GIV Gai3 FP; active compounds read low; fluorescence polarization, mP at 100 µM; 580 compounds, 38% hits; AID 1259350, 2017;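 active means inhibition score of 15 or more, meaning 100 minus mean polarization as percent of control over three replicates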;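 further: lower mP means peptide displaced from Galphai3 so more inhibition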
# GIV-Gai AS conf = inhibitors of GIV binding to Galpha-i3, confirmation, orthogonal assay for GIV-Galpha-i inhibitor project, biochemical, AlphaScreen, His-GIV, GST-Galphai3 | shares compounds with GIV Gai3 FP | purified proteins, 90 min; active compounds read low | AlphaScreen counts at 100 µM | 580 compounds, 39% hits | AID 1259351, 2017;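 active means inhibition score at or above a set limit, where the score is 100 minus the three-replicate mean percent of control signal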
# Starred values were filed as active, the others as inactive; i = inactive; / = no result. This is a sample that favours compounds with a hit; in the whole collection about 0.43% have one here.
mol | HCMV UL50-53 inh | GIV Gai3 FP | GIV Gai FP conf | GIV-Gai AS conf
CCCn1cc(S(=O)(=O)c2ccc(OC)cc2)c(=O)c2cc(F)c(N3CCN(C)CC3)cc21 | -12 | 68* | 71 | 35545
COC(=O)Cc1c(C)c2cc3c(c(C)c2oc1=O)OCN(CCc1ccc(OC)cc1)C3 | -46 | 98 | / | /
CCc1c(C)c2cc3c(c(C)c2oc1=O)OCN(CCc1ccc(OC)c(OC)c1)C3 | -33 | 83* | 79 | 14061*
CCCCN1CCN(S(=O)(=O)c2cc(-c3nnc(C4CC4)o3)co2)CC1 | / | 102 | / | /
NC1=NC2(O)c3ccccc3C(=O)C2(O)NN1 (configuration not stated) | / | 76* | 54* | 44135
O=C1NC2(O)C(=O)c3ccccc3C2(O)N1 (configuration not stated) | / | 113 | / | /
O=C(Nc1ccc(S(=O)(=O)N2CCCCC2c2cccnc2)cc1)c1ccccc1Br (configuration not stated) | / | 118 | / | /
CC(C)(C)C(=O)C1C2C3COC(O3)C(=O)C2C2C=Cc3ccccc3N21 (configuration not stated) | i | 100 | / | /
CC(=O)[C@@H]1[C@H]2C3COC(O3)C(=O)[C@@H]2[C@H]2C=Cc3ccccc3N21 (some centres not stated) | / | 80* | 51* | 7239*
CCSc1nnc2c(n1)OC(c1c(OC)ccc3ccccc13)Nc1ccccc1-2 (configuration not stated) | -38 | -4.5* | 62 | 32956*
CCCSc1nnc2c(n1)OC(c1ccc(F)cc1)Nc1ccccc1-2 (configuration not stated) | -10 | 66* | 82 | 31445
CCCSc1nnc2c(n1)OC(c1c(OC)ccc3ccccc13)Nc1ccccc1-2 (configuration not stated) | -31 | 112 | / | /
CCCSc1nnc2c(n1)OC(c1ccc(OCC(=O)O)cc1)Nc1ccccc1-2 (configuration not stated) | / | 103 | / | /
CCSc1nnc2c(n1)OC(c1ccc(Cl)cc1)Nc1ccccc1-2 (configuration not stated) | -7 | 78* | 76 | 28223
CCSc1nnc2c(n1)OC(c1ccc(C)cc1)Nc1ccccc1-2 (configuration not stated) | 3 | 92 | / | /
CC(Sc1nnc(-c2ccccc2)n1N)C(=O)O (configuration not stated) | 28 | 110 | / | /
COC(=O)c1ccccc1NC(=O)NC(C)(C)C | -4 | 107 | / | /
COc1cc(COC(=O)c2ccc3c(c2)S(=O)(=O)N=C2CCCCCN23)cc(OC)c1OC | -6 | / | / | /
Cc1cccc(Oc2ccccc2NC(=O)NC(C)(C)C)c1 | -1 | / | / | /
CC1=NN(c2ccccc2)C(=O)/C1=C1/C(=O)N(c2ccccc2)N=C1C | 106* | 61* | 53* | 17646*
CC1=NN(c2ccccc2)C(=O)C1=C1SCCS1 | -109 | 103 | / | /

# Profiles from above.
# Shown for CC1=NN(c2ccccc2)C(=O)C1=C1SCCS1 = HCMV UL50-53 inh = -109; GIV Gai3 FP = 103; GIV Gai FP conf = /; GIV-Gai AS conf = /
# Shown for CCSc1nnc2c(n1)OC(c1ccc(C)cc1)Nc1ccccc1-2 (configuration not stated) = HCMV UL50-53 inh = 3; GIV Gai3 FP = 92; GIV Gai FP conf = /; GIV-Gai AS conf = /
